# System: PC3 and DU145
smiles,measurement,value
"COc1ccc2c(c1)CC/C(=C\c1cccn1C1CC1)C2=O [Compound 7, (E)-2-((1-cyclopropyl-1H-pyrrol-2-yl)methylene)-6-methoxy-3,4-dihydronaphthalen-1 (2H)-one]",cytotoxicity in general screening (in words),comparable cytotoxicity to DK14

# Reference: patent publication US20250170111A1, “PYRIDINE BASED CHALCONE ANALOGS AS THERAPEUTIC AGENTS AND USE THEREOF” (QATAR UNIVERSITY, priority 2023, published 2025)
